Assay results as given in patent US20230285275A1, “BIOCOMPATIBLE STRUCTURE COMPRISING HOLLOW CAGE, AND MANUFACTURING METHOD THEREFOR” (MEDIFAB CO., LTD., priority 2018, published 2023).

What was measured:
[1] = system: ALP, Runx-2, OCN, and BSP; assay: Analysis of osteogenic differentiation, real-time PCR gene expression; format: cell-based; settings: early stage (7 days) versus up to 14 days of culturing
Procedure: Effects of BMP-2 released from the scaffolds according to Examples 1 and 2 and Comparative Examples 1 and 2 on osteogenic differentiation were analyzed. Specifically, gene expression was evaluated by real-time PCR using particular primer sets, and the primer sets used herein are shown in Table 1 below. A total RNA was isolated from in vitro cultures on day 3, day 7, and day 14 using a RNeasy mini kit (Quiagen, USA), and subjected to reverse transcription using a high capacity cDNA reverse transcription kit (Intron Biotechnology, Korea). After synthesizing cDNA, real-time PCR (LightCycler® instrument, Roche) was performed in ALP, Runx-2, OCN, and BSP. GAPDH was used as an endogenous control.

ALP activity of mMSCs = assay: ALP assay and staining; format: cell-based; settings: early stage (7 days) versus up to 14 days of culturing
Procedure: ALP activity of mMSCs was analyzed to determine biological activity of BMP-2 released from the scaffolds according to Examples 1 and 2 and Comparative Examples 1 and 2. Specifically, the activity of alkaline phosphatase (ALP), as a marker of the early stage of osteogenic differentiation was analyzed based on conversion of colorless p-nitrophenylphosphate into colored p-nitrophenol. The cells were washed twice with DPBS and lysed with a 0.2% Triton X-100 solution. ALP activity of cell lysates was analyzed using p-nitrophenylphosphate as a substrate. After culturing the cells at room temperature for 30 minutes, the biological activity was determined using a released amount of p-nitrophenol. The color change was measured using a spectrometer at 405 nm. BMP-2 was used as a positive control.
For ALP staining, the cells were washed with DPBS and fast blue PR salt was added to each well. Then, the cells were cultured at room temperature for 10 minutes and observed with an optical microscope.

B1: BMP-2: Bone morphogenetic protein-2, used as positive control (protein, UniProt P12643 283-396, looked up)
Bone morphogenetic protein 2: QAKHKQRKRLKSSCKRHPLYVDFSDVGWNDWIVAPPGYHAFYCHGECPFPLADHLNSTNHAIVQTLVNSVNSKIPKACCVPTELSAISMLYLDENEKVVLKNYQDMVVEGCGCR
osteogenic gene expression time course [1]: significantly increased in the early stage (7 days)
ALP activity time course (ALP activity of mMSCs): significantly increased in the early stage (7 days)
